According to PubChem BioAssay (NCI):
Some results for these compounds are left out of this collection, so the calls shown say nothing about other tests.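 Step 1: Grow cells in 96-well plates. Step 2: Expose to compound for 48 hours at 5 concentrations. Step 3: Interpolate endpoints linearly; if unreached, use highest concentration. At the GI50, growth is halved. TGI: total growth inhibition.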

Legend:
Experiment in all cases: DTP human tumour cell line panel, 48 h
786-0 renal = tested on: 786-0 renal
A498 renal = tested on: A498 renal
A549 NSCLC = tested on: A549 NSCLC
ACHN renal = tested on: ACHN renal
BT-549 breast = tested on: BT-549 breast
CAKI-1 renal = tested on: CAKI-1 renal
CCRF-CEM leukemia = tested on: CCRF-CEM leukemia
COLO 205 colon = tested on: COLO 205 colon
DU-145 prostate = tested on: DU-145 prostate
EKVX NSCLC = tested on: EKVX NSCLC
HCC-2998 colon = tested on: HCC-2998 colon
HCT-116 colon = tested on: HCT-116 colon
HCT-15 colon = tested on: HCT-15 colon
HL-60(TB) leukemia = tested on: HL-60(TB) leukemia
HOP-62 NSCLC = tested on: HOP-62 NSCLC
HS 578T breast = tested on: HS 578T breast
HT29 colon = tested on: HT29 colon
IGROV1 ovarian = tested on: IGROV1 ovarian
K-562 leukemia = tested on: K-562 leukemia
KM12 colon = tested on: KM12 colon
LOX IMVI melanoma = tested on: LOX IMVI melanoma
M14 melanoma = tested on: M14 melanoma
MALME-3M melanoma = tested on: MALME-3M melanoma
MCF7 breast = tested on: MCF7 breast
MDA-MB-231 breast = tested on: MDA-MB-231 breast
MDA-MB-435 = tested on: MDA-MB-435
MDA-N = tested on: MDA-N
MOLT-4 leukemia = tested on: MOLT-4 leukemia
NCI-H226 lung = tested on: NCI-H226 lung
NCI-H23 lung = tested on: NCI-H23 lung
NCI-H460 lung = tested on: NCI-H460 lung
NCI-H522 lung = tested on: NCI-H522 lung
NCI/ADR-RES ovarian = tested on: NCI/ADR-RES ovarian
OVCAR-3 ovarian = tested on: OVCAR-3 ovarian
OVCAR-4 ovarian = tested on: OVCAR-4 ovarian
OVCAR-5 ovarian = tested on: OVCAR-5 ovarian
OVCAR-8 ovarian = tested on: OVCAR-8 ovarian
PC-3 prostate = tested on: PC-3 prostate
RPMI-8226 leukemia = tested on: RPMI-8226 leukemia
SF-268 CNS = tested on: SF-268 CNS
SF-295 CNS = tested on: SF-295 CNS
SF-539 CNS = tested on: SF-539 CNS
SK-MEL-2 melanoma = tested on: SK-MEL-2 melanoma
SK-MEL-28 melanoma = tested on: SK-MEL-28 melanoma
SK-MEL-5 melanoma = tested on: SK-MEL-5 melanoma
SK-OV-3 ovarian = tested on: SK-OV-3 ovarian
SN12C renal = tested on: SN12C renal
SNB-19 CNS = tested on: SNB-19 CNS
SNB-75 CNS = tested on: SNB-75 CNS
SW-620 colon = tested on: SW-620 colon
T-47D breast = tested on: T-47D breast
TK-10 renal = tested on: TK-10 renal
U251 CNS = tested on: U251 CNS
UACC-257 melanoma = tested on: UACC-257 melanoma
UACC-62 melanoma = tested on: UACC-62 melanoma
UO-31 renal = tested on: UO-31 renal

SMILES: C=C(C)C#CC(O)(C(=O)OC1CCN(C)CC1)C1CCCC1 (configuration not stated)
- GI50 (786-0 renal): > 100 µM
- TGI (786-0 renal): > 100 µM
- GI50 (A498 renal): > 100 µM
- TGI (A498 renal): > 100 µM
- GI50 (A549 NSCLC): > 100 µM
- TGI (A549 NSCLC): > 100 µM
- GI50 (ACHN renal): > 100 µM
- TGI (ACHN renal): > 100 µM
- GI50 (BT-549 breast): > 100 µM
- TGI (BT-549 breast): > 100 µM
- GI50 (CAKI-1 renal): > 100 µM
- TGI (CAKI-1 renal): > 100 µM
- GI50 (CCRF-CEM leukemia): > 100 µM
- TGI (CCRF-CEM leukemia): > 100 µM
- GI50 (COLO 205 colon): > 100 µM
- TGI (COLO 205 colon): > 100 µM
- GI50 (DU-145 prostate): > 100 µM
- TGI (DU-145 prostate): > 100 µM
- GI50 (EKVX NSCLC): > 100 µM
- TGI (EKVX NSCLC): > 100 µM
- GI50 (HCC-2998 colon): 50.5 µM
- TGI (HCC-2998 colon): > 100 µM
- GI50 (HCT-116 colon): > 100 µM
- TGI (HCT-116 colon): > 100 µM
- GI50 (HCT-15 colon): > 100 µM
- TGI (HCT-15 colon): > 100 µM
- GI50 (HL-60(TB) leukemia): > 100 µM
- TGI (HL-60(TB) leukemia): > 100 µM
- GI50 (HOP-62 NSCLC): > 100 µM
- TGI (HOP-62 NSCLC): > 100 µM
- GI50 (HS 578T breast): > 100 µM
- TGI (HS 578T breast): > 100 µM
- GI50 (HT29 colon): 59.1 µM
- TGI (HT29 colon): > 100 µM
- GI50 (IGROV1 ovarian): > 100 µM
- TGI (IGROV1 ovarian): > 100 µM
- GI50 (K-562 leukemia): > 100 µM
- TGI (K-562 leukemia): > 100 µM
- GI50 (KM12 colon): > 100 µM
- TGI (KM12 colon): > 100 µM
- GI50 (LOX IMVI melanoma): > 100 µM
- TGI (LOX IMVI melanoma): > 100 µM
- GI50 (M14 melanoma): > 100 µM
- TGI (M14 melanoma): > 100 µM
- GI50 (MALME-3M melanoma): > 100 µM
- TGI (MALME-3M melanoma): > 100 µM
- GI50 (MCF7 breast): > 100 µM
- TGI (MCF7 breast): > 100 µM
- GI50 (MDA-MB-231 breast): > 100 µM
- TGI (MDA-MB-231 breast): > 100 µM
- GI50 (MDA-MB-435): > 100 µM
- TGI (MDA-MB-435): > 100 µM
- GI50 (MDA-N): > 100 µM
- TGI (MDA-N): > 100 µM
- GI50 (MOLT-4 leukemia): 92 µM
- TGI (MOLT-4 leukemia): > 100 µM
- GI50 (NCI-H226 lung): > 100 µM
- TGI (NCI-H226 lung): > 100 µM
- GI50 (NCI-H23 lung): > 100 µM
- TGI (NCI-H23 lung): > 100 µM
- GI50 (NCI-H460 lung): > 100 µM
- TGI (NCI-H460 lung): > 100 µM
- GI50 (NCI-H522 lung): 26.5 µM
- TGI (NCI-H522 lung): > 100 µM
- GI50 (NCI/ADR-RES ovarian): > 100 µM
- TGI (NCI/ADR-RES ovarian): > 100 µM
- GI50 (OVCAR-3 ovarian): > 100 µM
- TGI (OVCAR-3 ovarian): > 100 µM
- GI50 (OVCAR-4 ovarian): > 100 µM
- TGI (OVCAR-4 ovarian): > 100 µM
- GI50 (OVCAR-5 ovarian): > 100 µM
- TGI (OVCAR-5 ovarian): > 100 µM
- GI50 (OVCAR-8 ovarian): > 100 µM
- TGI (OVCAR-8 ovarian): > 100 µM
- GI50 (PC-3 prostate): 36.4 µM
- TGI (PC-3 prostate): > 100 µM
- GI50 (RPMI-8226 leukemia): > 100 µM
- TGI (RPMI-8226 leukemia): > 100 µM
- GI50 (SF-268 CNS): > 100 µM
- TGI (SF-268 CNS): > 100 µM
- GI50 (SF-295 CNS): > 100 µM
- TGI (SF-295 CNS): > 100 µM
- GI50 (SF-539 CNS): > 100 µM
- TGI (SF-539 CNS): > 100 µM
- GI50 (SK-MEL-2 melanoma): > 100 µM
- TGI (SK-MEL-2 melanoma): > 100 µM
- GI50 (SK-MEL-28 melanoma): > 100 µM
- TGI (SK-MEL-28 melanoma): > 100 µM
- GI50 (SK-MEL-5 melanoma): > 100 µM
- TGI (SK-MEL-5 melanoma): > 100 µM
- GI50 (SK-OV-3 ovarian): > 100 µM
- TGI (SK-OV-3 ovarian): > 100 µM
- GI50 (SN12C renal): > 100 µM
- TGI (SN12C renal): > 100 µM
- GI50 (SNB-19 CNS): > 100 µM
- TGI (SNB-19 CNS): > 100 µM
- GI50 (SNB-75 CNS): 31.2 µM
- TGI (SNB-75 CNS): > 100 µM
- GI50 (SW-620 colon): > 100 µM
- TGI (SW-620 colon): > 100 µM
- GI50 (T-47D breast): > 100 µM
- TGI (T-47D breast): > 100 µM
- GI50 (TK-10 renal): > 100 µM
- TGI (TK-10 renal): > 100 µM
- GI50 (U251 CNS): > 100 µM
- TGI (U251 CNS): > 100 µM
- GI50 (UACC-257 melanoma): 57.2 µM
- TGI (UACC-257 melanoma): > 100 µM
- GI50 (UACC-62 melanoma): 72.8 µM
- TGI (UACC-62 melanoma): > 100 µM
- GI50 (UO-31 renal): 82.1 µM
- TGI (UO-31 renal): > 100 µM
